Results on 1 molecule are retold here after patent US12351585B2, “2-phenyl-3,4-dihydropyrrolo[2,1-f] [1,2,4]triazinone derivatives as phosphodiesterase inhibitors and uses thereof” (TOPADUR PHARMA AG, priority 2015, dated 2025).

For the assay, the target named is human phosphodiesterase-5 (PDE5) (Homo sapiens (Human), UniProt O76074). Nature of the assay: PDE5 assay: formation of 5'GMP from cGMP, PDE5 enzyme isolated from human platelets.

In the case of `CCCOc1ccc(S(=O)(=O)N2CCC(CCO)CC2)cc1-c1nn2c(CCC)c(/C=N/O)c(C)c2c(=O)[nH]1` [Compound 1r, (E)-2-(5-((4-(2-hydroxyethyl)piperidin-1-yl)sulfonyl)-2-propoxyphenyl)-5-methyl-4-oxo-7-propyl-3,4-dihydropyrrolo[2,1-f][1,2,4]triazine-6-carbaldehyde oxime], the “% inhibition at 5.0E−09M” value came out at 74.0%.
